The values that follow come from US20200347147A1.

Amino acid sequences for entries named in this document (tags omitted). Residues count along the entry.
UniProt P06731, 35-685 limits assumed: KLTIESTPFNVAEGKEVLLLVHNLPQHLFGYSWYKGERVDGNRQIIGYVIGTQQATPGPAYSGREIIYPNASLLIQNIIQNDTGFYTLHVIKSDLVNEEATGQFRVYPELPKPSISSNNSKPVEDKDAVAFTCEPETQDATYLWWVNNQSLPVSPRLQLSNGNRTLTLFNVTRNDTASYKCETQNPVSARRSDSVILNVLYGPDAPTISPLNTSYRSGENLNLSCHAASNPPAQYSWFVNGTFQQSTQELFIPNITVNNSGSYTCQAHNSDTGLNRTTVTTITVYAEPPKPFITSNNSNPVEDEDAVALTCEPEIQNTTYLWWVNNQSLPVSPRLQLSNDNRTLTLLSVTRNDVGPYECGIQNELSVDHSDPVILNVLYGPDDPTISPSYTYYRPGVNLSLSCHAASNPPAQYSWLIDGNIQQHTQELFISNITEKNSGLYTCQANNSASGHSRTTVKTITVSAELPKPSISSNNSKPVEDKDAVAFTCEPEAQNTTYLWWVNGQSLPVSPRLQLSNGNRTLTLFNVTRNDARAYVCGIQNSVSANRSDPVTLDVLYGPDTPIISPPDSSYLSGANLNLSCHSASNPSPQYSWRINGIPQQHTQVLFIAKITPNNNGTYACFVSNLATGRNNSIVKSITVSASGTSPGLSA

This test concerns the target human Carcinoembryonic antigen (CEA), also known as Carcinoembryonic antigen-related cell adhesion molecule 5 (human) (UniProt P06731). Nature of the test: flow cytometry on CEA-expressing MKN45 cells, PE anti-human Fc secondary.

Parental chimeric T84.66 IgG (antibody) displayed an EC50 of 0.99 µg/mL.

A word on the EC50: it is the midpoint of the concentration-response curve. A higher EC50 goes with lower potency in that assay.
